Protein sequences, listed by entry. Tags and fused reporters are not part of them.
Melanocortin receptor 4 (Homo sapiens), P32245, UniProt P32245, whole entry, looked up: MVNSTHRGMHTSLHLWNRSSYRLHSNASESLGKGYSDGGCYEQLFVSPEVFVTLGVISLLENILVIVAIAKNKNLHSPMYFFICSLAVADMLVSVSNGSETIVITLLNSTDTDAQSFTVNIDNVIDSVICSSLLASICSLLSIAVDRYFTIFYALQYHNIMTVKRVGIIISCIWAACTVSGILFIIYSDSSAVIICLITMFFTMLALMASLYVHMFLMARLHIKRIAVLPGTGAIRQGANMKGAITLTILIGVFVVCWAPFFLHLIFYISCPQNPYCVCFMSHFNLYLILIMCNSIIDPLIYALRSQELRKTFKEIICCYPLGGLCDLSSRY

# HDAC3 inh: HDAC3 deacetylase inhibitors, primary screen, biochemical, fluorescence, cell-free homogeneous; Histone deacetylase 3 (Homo sapiens), O15379; recombinant HDAC3, fluorogenic peptide/trypsin coupled; inhibition, % at 8.3 µM; 320,000 tested, 0.15% active; AID 2718, 2010; in the data active = inhibition above about 26%, passing the limit was not always enough
# MC4R antagonist: MC4R antagonists of cAMP signaling, primary screen, cell-based, TR-FRET, antagonist arm of biased-ligand search; Melanocortin receptor 4 (Homo sapiens), P32245; MC4R-expressing cells, MTII-stimulated cAMP, LANCE TR-FRET; inhibition, % at 6.5 µM; 360,000 tested, 0.48% active;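 active = inhibition above its plate's cutoff, the mean of tested wells on that plate plus 3 SD, cut at about 29% in these data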;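 note: 0% = Melanotan II alone and 100% = Melanotan II plus saturating MCL0020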
#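 system = U2OS cells with stable human MC4R expression | also added = Melanotan II challenge after compound preincubation | dosing = one concentration, 6.5 µM nominal | incubation = compound 30 min, challenge 1 h, detection 1 h | measured by = TR-FRET with Eu-cAMP and labeled anti-cAMP, 671 nm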
# Yeast UUG start-1: yeast start codon fidelity modulation; activity score, % at 18.7 µM; actives 0.13% (n = 350,000); S. cerevisiae UUG-firefly luciferase reporter, luminescence/redox ratio; AID 602363;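 active means replicate mean at a twofold rise or more, about +100% in these data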;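 further: firefly luciferase made from a UUG start codon reports start codon fidelity; reporter light over untreated wells divided by growth signal over untreated wells; some hits fall short of that in this replicate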
# ALR H2O2 inh: human ALR oxidase inhibition via reduced H2O2. P55789. purified ALR, DTT oxidation, H2O2 HRP-luminol luminescence. inhibition, % (no concentration beside the values). 290,000 tested, 3.8% active. AID 485317;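 active = mean and each replicate at 75% or more; inconclusive = only one of the two met; inactive = neither met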;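 also: stock transfer was 7.5 nL into about 7.5 µL; 0% = neutral wells and 100% = wells with inactivated enzyme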
# MC4R ag barr: MC4R agonists recruiting beta-arrestin, primary screen, cell-based, luminescence, agonist arm of biased-ligand search; Melanocortin receptor 4 (Homo sapiens), P32245; U2OS MC4R beta-arrestin complementation; percent of melanotan II response, DMSO zero; activation, % at 8.9 µM; 360,000 tested, 0.98% active; AID 540308, 2011;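 active = activation above a per-plate cutoff, the mean activation of sample wells on that plate plus 3 SD, cut at about 8% in these data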
# NALP1 yeast inh: NALP1 inflammasome inhibitors in reconstituted yeast, colorimetric, S. cerevisiae, triplicate retest | S. cerevisiae NALP1/ASC/caspase-1 growth, X-gal OD620, 72 h | inhibition, % at 10 µM | 280,000 tested, 0.61% active | AID 2071, 2009; in the data active = inhibition mostly above about 24%, no sharp cut-off; inactive = mostly below about 32%
# MC4R barr ag: MC4R beta-arrestin agonists, retest, confirmation, cell-based, luminescence, U2OS | AID 602192, 2012 | U2OS MC4R beta-arrestin recruitment; scaled DMSO 0%, Melanotan II 100% | 2,400 tested, 31% active | activation, % at 8.9 µM | shares compounds with MC4R ag barr;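 active = mean activation across replicates above the hit cutoff set in the earlier primary screen, cut at about 8% in these data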
# MOR DOR agonist: agonists of MOR-DOR heterodimerization, counter-screen for MC4R biased agonist project, cell-based, luminescence | activation, % at 9.2 µM | 2,400 tested, 5.8% active | AID 602194, 2012 | U2OS PathHunter beta-arrestin, beta-gal luminescence; percent of deltorphin B response, DMSO zero | shares compounds with MC4R ag barr;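 active = mean activation across replicates exceeds the hit threshold derived in the earlier primary screen, cut at about 18% in these data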;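 note: 100% = deltorphin B at 0.9 µM final and 0% = DMSO alone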
# Yeast UUG start-2: enhancers of UUG start codon usage in yeast, dose response, S. cerevisiae, UUG firefly luciferase, cherry-pick, set 2; shares compounds with Yeast UUG start-1; luminescence, 4 h; 100% means double the DMSO signal; activation, % at 38 µM; 540 tested, under 10 active; AID 652061, 2013;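 active = signal increase whose fitted curve reaches an absolute level of 40 at a concentration under 10 µM; inactive = activity opposite to the expected increase, or the rest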
# * = called active by the depositor; x = no result given. The list is not random: actives were taken first. Their share in the collection is about 4.2%.
SMILES,HDAC3 inh,MC4R antagonist,Yeast UUG start-1,ALR H2O2 inh,MC4R ag barr,NALP1 yeast inh,MC4R barr ag,MOR DOR agonist,others
COc1ccc(-c2cnc3c(NC(C)=O)cc(-c4cccc(C(=O)NCCO)c4)cn23)cc1OC,x,-2,-14,x,3,x,x,x,
COc1ccccc1-c1cc(NC(C)=O)c2ncc(-c3cccc(C(C)=O)c3)n2c1,x,-17,-1,x,11*,x,18*,4,
COc1cc(-c2cc(NC(C)=O)c3ncc(-c4cc(OC)c(OC)c(OC)c4)n3c2)cc(OC)c1OC,x,-33,-6,x,9.6*,x,9.3*,2,
COc1ccc(-c2cc(NC(C)=O)c3ncc(-c4ccc(OC)c(OC)c4)n3c2)cc1OC,x,11,5,x,15*,x,23*,2,
CCCC#Cc1cnc2c(c1)C(=O)N([C@H](C)CO)C[C@@H](C)[C@H](CN(C)C(=O)CN1CCOCC1)O2,x,x,-4,x,x,x,x,x,
c1ccc(OCc2nnc3sc(-c4cccs4)nn23)cc1,4,-5,-16,x,0,-3,x,x,
Clc1ccc(Cl)c(-c2nn3c(COc4ccccc4)nnc3s2)c1,-2,12,-21,0,17*,-3,11*,4,
Cc1ccc(NC(=O)CSc2ccccc2NC(=O)c2ccccc2)cc1Cl,-2,12,13,-8,13*,23,8,24*,
CNC(=O)/C(C#N)=C/c1ccc(-c2ccc(Cl)cc2)o1,6,5,x,-2,14*,-14,41*,13,
CCOC(=O)c1ccc(-c2ccc(/C=C(\C#N)C(=O)NCc3cccs3)o2)cc1,2,-19,-16,-22,39*,21,27*,6,
CNC(=O)/C(C#N)=C/c1ccc(-c2ccccc2[N+](=O)[O-])o1,-7,-17,x,-2,-2,14,x,x,
CC(=O)Nc1cc(-c2ccc(C(=O)N3CCOCC3)cc2)cn2c(-c3cccc(C(C)=O)c3)cnc12,x,19,5,x,2,x,x,x,
COc1cccc(-c2cnc3c(NC(C)=O)cc(-c4ccc(C(=O)N5CCOCC5)cc4)cn23)c1,x,19,-9,x,15*,x,20*,3,
COc1cccc(-c2cnc3c(NC=O)cc(-c4cccc(NC(C)=O)c4)cn23)c1,x,-6,-7,x,12*,x,12*,2,
CC(=O)Nc1cccc(-c2cc(NC=O)c3ncc(-c4cccc(C(C)=O)c4)n3c2)c1,x,-16,-12,x,5,x,x,x,
CC(=O)c1cccc(-c2cnc3c(NC=O)cc(-c4ccccc4)cn23)c1,x,-2,-11,x,9.6*,x,13*,4,
CN(C)C(=O)c1cccc(-c2cnc3c(NC=O)cc(-c4ccccc4Cl)cn23)c1,x,-18,-17,x,9.8*,x,8.9*,3,
CC(=O)c1cccc(-c2cnc3c(NC=O)cc(-c4ccc(C(=O)N5CCOCC5)cc4)cn23)c1,x,-8,3,x,6,x,x,x,
COc1ccc(-c2cc(NC=O)c3ncc(-c4cccc(C(C)=O)c4)n3c2)cc1,x,11,-18,x,13*,x,13*,2,
COCCNc1nnc(SC(C)C(=O)Nc2c(C)n(C)n(-c3ccccc3)c2=O)s1 (stereo not drawn),-3,-3,-17,-1,-3,9,x,x,

# Entries above with a halogen (four):
SMILES,HDAC3 inh,MC4R antagonist,Yeast UUG start-1,ALR H2O2 inh,MC4R ag barr,NALP1 yeast inh,MC4R barr ag,MOR DOR agonist,others
Clc1ccc(Cl)c(-c2nn3c(COc4ccccc4)nnc3s2)c1,-2,12,-21,0,17*,-3,11*,4,
Cc1ccc(NC(=O)CSc2ccccc2NC(=O)c2ccccc2)cc1Cl,-2,12,13,-8,13*,23,8,24*,
CNC(=O)/C(C#N)=C/c1ccc(-c2ccc(Cl)cc2)o1,6,5,x,-2,14*,-14,41*,13,
CN(C)C(=O)c1cccc(-c2cnc3c(NC=O)cc(-c4ccccc4Cl)cn23)c1,x,-18,-17,x,9.8*,x,8.9*,3,

# Next section
SMILES,HDAC3 inh,MC4R antagonist,Yeast UUG start-1,ALR H2O2 inh,MC4R ag barr,NALP1 yeast inh,MC4R barr ag,MOR DOR agonist,others
COCCNc1nnc(SC(C)C(=O)Nc2ccc(-c3nc4ccc(C)cc4s3)cc2)s1 (stereo not drawn),-1,12,-16,-16,15*,30,7,5,
C[C@@H]1CCCCO[C@H](CN(C)Cc2ccc(C(=O)O)cc2)[C@@H](C)CN([C@@H](C)CO)C(=O)c2cc(NC(=O)CCC(F)(F)F)ccc2O1,x,x,1,x,x,x,x,x,
O=C(NCc1nc(-c2ccc(C(F)(F)F)cc2)no1)Nc1ccc(OC(F)(F)F)cc1,18,3,-2,x,11*,x,5,2,
COc1ccc(-c2noc(CNS(=O)(=O)c3ccc(NC(C)=O)cc3)n2)cc1,-2,-7,-10,-3,0,24,x,x,
COc1ccccc1-c1cnc2c(c1)C(=O)N([C@H](C)CO)C[C@H](C)[C@@H](CN(C)C(=O)c1ccncc1)O2,x,x,-2,x,x,x,x,x,
CCOc1cc(C(=S)N2CCOCC2)ccc1OC(=O)/C=C/c1ccc(OC)c(OC)c1,9,6,517*,-9,11*,31,0,2,Yeast UUG start-2=3
C[C@@H]1CCCCO[C@H](CN(C)C(=O)CCC(F)(F)F)[C@@H](C)CN([C@H](C)CO)C(=O)c2cc(NC(=O)NC3CCCCC3)ccc2O1,x,x,6,x,x,x,x,x,
COc1cc(SC)ccc1C(=O)Nc1ccncc1,2,4,x,-10,0,9,x,x,
COc1cc(SC)ccc1C(=O)Nc1ccccc1C#N,0,-2,501*,x,12*,-14,7,4,Yeast UUG start-2=4
O=C(/C=C/c1ccccc1)Nc1nc(-c2ccncc2)cs1,-1,2,594*,-102,1,-4,x,x,Yeast UUG start-2=-7
C[C@H](CO)N1C[C@H](C)[C@@H](CN(C)C(=O)C2CC2)Oc2cc(C#C[C@@H](C)O)ccc2S1(=O)=O,x,x,-7,x,x,x,x,x,
COc1cc(C2CC(=O)C=C(O)C2)cc(OC)c1OC (stereo not drawn),0,0,516*,-14,4,7,x,x,Yeast UUG start-2=0
COc1ccc(C2CC(=O)C=C(O)C2)cc1 (stereo not drawn),-9,1,x,3,0,27,x,x,
Cc1ccc(Cc2c(-c3ccc(C#N)cc3)nc3ccc(Cl)cn23)cc1,x,x,-36,x,x,x,x,x,
CC(C)(C)Cc1c(-c2ccc(C#N)cc2)nc2ccc(Cl)cn12,x,3,165*,x,1,x,x,x,Yeast UUG start-2=-6
Cn1c(=O)[nH]c(=O)c2c1nc(Br)n2CCC(=O)c1ccccc1,1,2,0,x,-1,9,x,x,

# Screens deposited in PubChem BioAssay by several laboratories.
